Assay results reported in patent US8604061B2, “2-aminooxazolines as TAAR1 ligands” (Hoffmann-La Roche Inc., priority 2007, dated 2013).

Sequences of proteins named here, by UniProt entry; tags and fusion partners are left off.
UniProt Q923Y8, whole entry: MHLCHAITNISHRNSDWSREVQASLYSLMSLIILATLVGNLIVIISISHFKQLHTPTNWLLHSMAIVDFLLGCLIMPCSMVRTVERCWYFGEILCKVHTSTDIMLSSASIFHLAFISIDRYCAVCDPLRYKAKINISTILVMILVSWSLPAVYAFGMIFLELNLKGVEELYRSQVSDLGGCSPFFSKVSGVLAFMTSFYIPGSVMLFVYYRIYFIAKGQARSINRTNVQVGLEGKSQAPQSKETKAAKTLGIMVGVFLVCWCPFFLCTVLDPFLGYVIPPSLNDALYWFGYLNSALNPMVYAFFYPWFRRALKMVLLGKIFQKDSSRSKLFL

Biological target: TAAR1 (Mus musculus, UniProt Q923Y8)
Assay: TAAR1 radioligand binding, membranes of stably transfected HEK293 cells (mouse)
Settings: read-out: Ki (μM) mouse/rat, cell not marked 'rat', radioligand [3H]-rac-2-(1,2,3,4-tetrahydro-1-naphthyl)-2-imidazoline, 4° C.

`CC1(c2cc(F)cc(F)c2F)COC(N)=N1` (racemic) gave a Ki of 0.0081 µM.
